Reference: US7183411B2, “Naphthol, quinoline and isoquinoline-derived urea modulators of vanilloid VR1 receptor” (Janssen Pharmaceutica N.V., priority 2002, dated 2007)

Sequences of proteins named here, by UniProt entry; tags and fusion partners are left off.
UniProt O35433, whole entry: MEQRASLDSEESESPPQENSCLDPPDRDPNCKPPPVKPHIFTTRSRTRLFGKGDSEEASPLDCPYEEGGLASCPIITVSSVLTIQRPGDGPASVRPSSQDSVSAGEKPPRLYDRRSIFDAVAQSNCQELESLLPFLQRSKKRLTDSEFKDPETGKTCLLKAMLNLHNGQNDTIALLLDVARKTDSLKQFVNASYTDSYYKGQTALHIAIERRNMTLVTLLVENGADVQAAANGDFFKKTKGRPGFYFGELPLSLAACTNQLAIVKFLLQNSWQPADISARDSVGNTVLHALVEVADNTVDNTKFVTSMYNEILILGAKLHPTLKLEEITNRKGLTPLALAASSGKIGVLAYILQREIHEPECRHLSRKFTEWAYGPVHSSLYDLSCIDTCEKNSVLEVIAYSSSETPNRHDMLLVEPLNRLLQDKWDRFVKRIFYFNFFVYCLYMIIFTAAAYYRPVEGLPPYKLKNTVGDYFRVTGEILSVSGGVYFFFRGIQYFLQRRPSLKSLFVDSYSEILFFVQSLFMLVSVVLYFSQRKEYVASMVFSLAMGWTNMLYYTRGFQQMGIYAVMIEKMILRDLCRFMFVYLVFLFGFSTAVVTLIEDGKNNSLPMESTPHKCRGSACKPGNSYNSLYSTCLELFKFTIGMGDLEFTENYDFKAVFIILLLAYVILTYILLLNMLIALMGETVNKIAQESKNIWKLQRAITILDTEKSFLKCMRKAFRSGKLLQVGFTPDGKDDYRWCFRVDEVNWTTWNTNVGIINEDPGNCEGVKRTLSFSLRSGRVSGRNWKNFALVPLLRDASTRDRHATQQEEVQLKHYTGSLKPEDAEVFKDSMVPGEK
UniProt Q8NER1, whole entry: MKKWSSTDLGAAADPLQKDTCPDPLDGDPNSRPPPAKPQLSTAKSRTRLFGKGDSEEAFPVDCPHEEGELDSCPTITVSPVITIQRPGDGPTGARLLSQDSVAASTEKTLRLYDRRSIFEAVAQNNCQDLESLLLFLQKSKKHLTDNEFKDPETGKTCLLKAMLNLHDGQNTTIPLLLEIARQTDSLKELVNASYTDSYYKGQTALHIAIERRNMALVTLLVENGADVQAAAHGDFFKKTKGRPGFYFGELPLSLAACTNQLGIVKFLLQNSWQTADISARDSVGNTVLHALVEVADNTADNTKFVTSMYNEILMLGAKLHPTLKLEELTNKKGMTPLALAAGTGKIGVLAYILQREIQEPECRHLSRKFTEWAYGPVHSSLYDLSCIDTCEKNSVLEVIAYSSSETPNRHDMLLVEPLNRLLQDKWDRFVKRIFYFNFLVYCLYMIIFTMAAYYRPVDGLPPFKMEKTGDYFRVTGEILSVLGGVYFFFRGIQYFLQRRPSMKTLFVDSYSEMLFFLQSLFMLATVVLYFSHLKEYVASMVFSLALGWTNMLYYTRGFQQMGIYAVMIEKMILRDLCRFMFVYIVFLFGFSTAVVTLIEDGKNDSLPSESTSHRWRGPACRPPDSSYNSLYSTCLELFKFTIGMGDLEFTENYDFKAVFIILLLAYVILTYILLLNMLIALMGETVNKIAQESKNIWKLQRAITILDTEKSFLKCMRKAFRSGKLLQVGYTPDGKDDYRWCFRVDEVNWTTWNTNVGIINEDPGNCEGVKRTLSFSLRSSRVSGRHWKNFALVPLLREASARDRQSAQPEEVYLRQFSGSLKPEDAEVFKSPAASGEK

How the values were obtained:
VR1 (rat spinal cord) = VR1 (rat spinal cord) (Rattus norvegicus, UniProt O35433); experiment: [3H]-RTX binding assay using rat tissue (spinal cord membranes); settings: read-out: Receptor binding Ki (rat), cells marked (rat)
[1] = biological target: human VR1 vanilloid receptors (Homo sapiens, UniProt Q8NER1); experiment: [3H] RTX binding assay, hVR1 membranes from transfected HEK293 cells; settings: read-out: Receptor binding Ki

Row | Compound | Ki (VR1 (rat spinal cord)) [nM] | Ki [1] [nM]
1 | O=C(NCc1cc2ccccc2s1)Nc1cccc2ccc(O)cc12 | 349 | 
2 | O=C(NCc1ccc(Cl)c(C(F)(F)F)c1)Nc1cccc2cnccc12 |  | 0.82
3 | COc1ccc(C(CNC(=O)Nc2cccc3cnccc23)Cc2ccccc2)cc1 (stereo not drawn) |  | 5.89
